Assay [1] concerns the target Sodium-dependent serotonin transporter (Homo sapiens, UniProt P31645). The experiment in a line: Inhibition of SERT.
Assay [2] deals with 5-hydroxytryptamine receptor 2A (Homo sapiens, UniProt P28223). The experiment in a line: Inhibition of 5-HT2A receptor.

Protein sequences, listed by entry. Tags and fused reporters are not part of them.
UniProt P31645, whole entry: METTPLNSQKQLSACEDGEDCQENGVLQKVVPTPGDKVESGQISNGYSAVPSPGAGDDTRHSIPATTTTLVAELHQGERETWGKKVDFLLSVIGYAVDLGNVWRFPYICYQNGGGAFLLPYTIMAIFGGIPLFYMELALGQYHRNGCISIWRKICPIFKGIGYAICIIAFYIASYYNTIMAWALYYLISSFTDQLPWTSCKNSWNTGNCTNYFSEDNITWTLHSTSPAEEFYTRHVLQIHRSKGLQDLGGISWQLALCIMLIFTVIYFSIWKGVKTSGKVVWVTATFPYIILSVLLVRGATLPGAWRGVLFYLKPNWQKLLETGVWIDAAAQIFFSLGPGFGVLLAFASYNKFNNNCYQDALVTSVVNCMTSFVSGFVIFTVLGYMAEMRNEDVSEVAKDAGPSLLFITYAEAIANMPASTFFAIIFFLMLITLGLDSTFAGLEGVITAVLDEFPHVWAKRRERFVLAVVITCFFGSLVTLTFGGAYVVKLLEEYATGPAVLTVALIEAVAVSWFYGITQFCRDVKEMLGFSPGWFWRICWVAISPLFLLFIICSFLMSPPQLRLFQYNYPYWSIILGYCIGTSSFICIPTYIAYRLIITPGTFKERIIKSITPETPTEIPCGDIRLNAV
UniProt P28223, whole entry: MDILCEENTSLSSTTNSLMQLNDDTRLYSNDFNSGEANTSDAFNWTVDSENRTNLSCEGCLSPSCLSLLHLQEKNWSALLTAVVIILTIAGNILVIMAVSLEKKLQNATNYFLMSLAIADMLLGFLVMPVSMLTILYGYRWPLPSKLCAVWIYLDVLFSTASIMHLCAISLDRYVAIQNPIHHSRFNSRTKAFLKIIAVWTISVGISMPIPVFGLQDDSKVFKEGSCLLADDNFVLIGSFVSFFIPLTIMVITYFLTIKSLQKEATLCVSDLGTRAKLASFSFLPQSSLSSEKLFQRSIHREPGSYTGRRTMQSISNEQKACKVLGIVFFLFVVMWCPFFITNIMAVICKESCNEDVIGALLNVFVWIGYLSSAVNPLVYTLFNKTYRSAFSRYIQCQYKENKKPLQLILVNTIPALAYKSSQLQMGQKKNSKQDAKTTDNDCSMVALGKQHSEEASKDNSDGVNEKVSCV

Consider two compounds from ChEMBL document CHEMBL1154983, “Arylpiperazine-containing pyrrole 3-carboxamide derivatives targeting serotonin 5-HT(2A), 5-HT(2C), and the serotonin transporter as a potential antidepressant” (Bioorg Med Chem Lett, 2010).

For the compound `O=S1(=O)N(CCN2CC=C(c3c[nH]c4cc(F)ccc34)CC2)c2cccc3c2N1CCC3`, the Ki in assay [1] was 2.3 nM; in assay [2] it was 0.81 nM.
Take `Fc1ccc(OC[C@@H]2CNCCO2)c2c1CCC2` [LUBAZODONE]: the Ki in assay [1] is 21 nM; in assay [2] it was 86 nM.
